The values below come from PubChem BioAssay AID1527 (The Scripps Research Institute Molecular Screening Center, 2009).

Each structure is given as a SMILES string. “And” between values parts separate entries of the source, which are not always exact repeats. Identical values can stand only once. This is a selection; strong and weak results do not stand in their true shares. The source made the active and inactive calls.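 How the source made its calls: active means inhibition above the mean of all tested compounds plus 3 SD, cutoff set per screening run (cut at about 7.5% in these data); inactive means the rest.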

This experiment has as its system VIM-2 metallo-beta-lactamase (Pseudomonas aeruginosa). Kind of experiment: inhibition of VIM-2 nitrocefin hydrolysis – biochemical, epi-absorbance readout, Pseudomonas aeruginosa enzyme, primary screen (AID 1527).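 Further: red hydrolysis product quenches plate fluorescence so inhibitors raise well fluorescence; 0% = enzyme with DMSO and 100% = DMSO without enzyme.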 The note with it: purified VIM-2, nitrocefin hydrolysis, epi-absorbance fluorescence; at 5.6 µM; stronger effect = higher value.
As a reminder, the inhibition is the change of the read-out against control, counted positive when it falls. Take `Nc1cccc([As](=O)(O)c2ccccc2)c1`: the inhibition was inactive: -2.31%.
On to `O=[As](O)(c1cccs1)c1cccs1`, for which the inhibition is inactive: -0.39%.
To `Cc1ccc(OCC(=O)OC2CN3CCC2CC3)cc1` (configuration not stated) belongs inactive: 0.45%.
Under `O=P1(Nc2ccc(Br)cn2)COc2ccccc2OC1` stands inactive: -0.07%; under `O=P1(Nc2ncccn2)COc2ccccc2OC1`, inactive: -2.59%; under `CN(C)C1(CNC(=O)c2ccc(S(C)(=O)=O)cc2)CCCCC1`, inactive: 1.37%.
On to `O=C(/C=C/c1ccccc1)OC1CN2CCC1CC2` (configuration not stated), for which the inhibition was inactive: -1.47%.
As for `Cc1nn(-c2ccccc2)c2c1P(=O)(N1CCOCC1)N(C)C(c1ccccc1)=N2` (configuration not stated), the inhibition was inactive: -1.84%.
With `CC1CCC(C(C)C)C(OP(=O)(Nc2ccccn2)c2ccccc2)C1` (configuration not stated), the inhibition was inactive: -3.02%.
To `Cc1ccc(C(=O)OC2CN3CCC2CC3)cc1` (configuration not stated) belongs inactive: -1.34%; to `CC(C)/C=N\N=C(\N)N[N+](=O)[O-]`, inactive: -2.14%; to `CN(C(=O)Cc1ccc(Cl)c(Cl)c1)[C@@H]1CCCC[C@H]1N1CCCC1`, inactive: -0.55%.
On to `O=[As](O)(c1ccccc1Br)c1ccccc1Br`, for which the inhibition is inactive: -0.13%.
For `CC1(CBr)Cn2c(nc3ccccc3c2=O)S1` (configuration not stated), the inhibition is inactive: 0.27%.
For the compound `Clc1n[nH]nc1-c1nn[nH][15n]1`, the inhibition was inactive: -3.72%.
To `CC(C)(C)C(=O)NC(Sc1ncccn1)C(Cl)(Cl)Cl` (configuration not stated) belongs inactive: -3.17%.
To `O=P1(Nc2ccccn2)COc2ccccc2OC1` belongs inactive: -3.7%; to `CCC1=CC2Cc3nc4ccc(Cl)cc4c(N)c3C(C1)C2` (configuration not stated), inactive: 3.01%.
To `CCOP(=O)(NC(=NC(C)c1ccccc1)NC(C)c1ccccc1)OCC` (configuration not stated) belongs inactive: -2.96%.
In the case of `CCOP(=O)(Nc1ccc(C)cn1)OCC`, the inhibition is inactive: -0.98%.
To `COc1cc(C2NCCC3(OCCO3)C2(C)C)cc(OC)c1OC` (configuration not stated) belongs inactive: -3.82%.
Take `CCOP(=O)(Nc1cccc2ccccc12)OCC`: the inhibition was inactive: -2.11%.
In the case of `Nc1cccc2c([As](=O)(O)O)cccc12`, the inhibition is active: 11%.
Under `Cc1ccc(NCCc2c([N+](=O)[O-])cc([N+](=O)[O-])cc2[N+](=O)[O-])cc1` stands inactive: -1.17%; under `CCCOP(=S)(Nc1nc(N)cc(=O)[nH]1)OCCC`, inactive: -1.97%; under `Cc1cccc(OCC(=O)OC2CN3CCC2CC3)c1` (configuration not stated), inactive: -1.4%.
To `O=[As](O)(c1cccc(O)c1)c1cccc(O)c1` belongs inactive: -1.83%; to `O=C(OC1CN2CCC1CC2)c1ccc(Cl)cc1` (configuration not stated), inactive: -0.94%.
For `O=[As](O)(O)c1cccnc1`, the inhibition is inactive: -0.93%.
`COc1cc(C(=O)NCC2(N3CCOCC3)CCCCC2)cc(Cl)c1OC(C)C`: the inhibition is inactive: -1.73%.
For the compound `CS(=O)(=O)c1ccc(Cl)c(NC(=O)COC(=O)C(O)(c2ccccc2)c2ccccc2)c1`, the inhibition was inactive: 1.44%.
To `CCOP1(=S)c2c(C)nn(CCC#N)c2N=C(c2ccc(F)cc2)N1C` (configuration not stated) belongs inactive: 0.47%; to `O=[N+]([O-])c1ccc2c(c1)nnn2O`, inactive: -2.38%; to `Nc1ccccc1[As](=O)(O)c1ccccc1`, inactive: -2.23%.
Consider `O=C(O)COc1ccc([As](=O)(O)O)cc1[N+](=O)[O-]`, for which the inhibition is inactive: -0.11%.
For the compound `CCOP1(=S)c2c(C)nn(CCC#N)c2N=C(c2ccccc2F)N1C` (configuration not stated), the inhibition is inactive: -2.04%.
Under `O=P(Nc1nccs1)(Oc1ccccc1)Oc1ccccc1` stands inactive: -3.43%; under `O=P(Nc1nccs1)(c1ccccc1)c1nc2ccccc2s1` (configuration not stated), active: 7.9%; under `CS(=O)(=O)c1cc([N+](=O)[O-])c2no[n+]([O-])c2c1`, inactive: -0.35%.
As for `CC(C)NC(=O)NP(=O)(Oc1ccccc1)Oc1ccccc1`, the inhibition is inactive: -2.22%.
To `CCN(CC)C(=S)SC(NC=O)C(Cl)(Cl)Cl` (configuration not stated) belongs inactive: -1.91%; to `O=[N+]([O-])c1cc([N+](=O)[O-])c(-c2ccn[nH]2)s1`, inactive: -2.29%; to `ClCCSc1nnc(-c2cccnc2)o1`, inactive: -1%.
For the compound `CC(C)c1ccc(OP(=O)(Nc2ccccn2)Oc2ccccc2F)cc1` (configuration not stated), the inhibition was inactive: -1.76%.
On to `Cc1ccc(OP(=O)(Nc2ccc([N+](=O)[O-])cn2)Oc2ccc(C)cc2)cc1`, for which the inhibition is inactive: -2.11%.
Take `Cc1ccc2nc3c(c(C)c2c1)CC(C(Cl)Cl)S3` (configuration not stated): the inhibition is inactive: 1.81%.
Under `O=[As](O)(c1ccc(O)cc1)c1ccccc1O` stands inactive: -0.27%.
To `C[As](=O)(O)c1cccc(C(=O)O)c1` belongs inactive: 0.32%.
With `COc1ccc(N/C(=N/P(=O)(N2CCOCC2)N2CCOCC2)N2CCOCC2)cc1`, the inhibition is inactive: -2.45%.
Under `COc1ccc2nc(NP(=O)(c3ccccc3)c3ccccc3)sc2c1` stands inactive: -4.09%; under `COc1cc(I)ccc1[As](=O)(O)O`, inactive: -1.47%; under `Cc1c2c(nc3ccccc13)SC(C(Cl)Cl)C2` (configuration not stated), inactive: -0.34%.
Regarding `O=C(OC1CN2CCC1CC2)C12CC3CC(CC(C3)C1)C2` (configuration not stated), the inhibition was inactive: -1.34%.
To `Cc1cc(=O)[nH]c(N[N+](=O)[O-])n1` belongs inactive: -1.37%; to `CCC(C)N(CC(C)C)C(=S)SC(NC(C)=O)C(Cl)(Cl)Cl` (configuration not stated), inactive: -2.61%.
With `O=C(OC1CN2CCC1CC2)c1cccc([N+](=O)[O-])c1` (configuration not stated), the inhibition is inactive: 1.07%.
As for `CCOC(=O)c1ccc(NC(=O)C(C)(CCl)SC)cc1` (configuration not stated), the inhibition is inactive: -3.4%.
Take `O=C(COc1ccccc1)OC1CN2CCC1CC2` (configuration not stated): the inhibition is inactive: 0.98%.
To `O=C(Nc1ccncc1[N+](=O)[O-])c1ccc([N+](=O)[O-])cc1[N+](=O)[O-]` belongs inactive: 1.06%; to `COP1(=S)c2c(C)nn(CCC#N)c2N=C(c2ccc(F)cc2)N1C` (configuration not stated), inactive: -4.79%; to `O=P(Nc1ccccn1)(c1cccc2ccccc12)c1cccc2ccccc12`, inactive: -2.93%.
`Cc1cc(SC(NC=O)C(Cl)(Cl)Cl)ncn1` (configuration not stated): the inhibition was inactive: -5.11%.
As to `O=[N+]([O-])c1ccc(Nc2ccc(Oc3ccc([N+](=O)[O-])cc3[N+](=O)[O-])cc2)c([N+](=O)[O-])c1`, the inhibition was inactive: -3.78%.
To `CCOC(=O)Nc1cccc([As](=O)(O)O)c1` belongs inactive: -1.6%; to `CCCCOc1ccc(C(=O)NCC2(N3CCCCC3)CCCCC2)cc1OC`, inactive: -1.72%; to `Cc1cc(SC(NC(=O)c2ccccc2)C(Cl)(Cl)Cl)nc(C(C)C)n1` (configuration not stated), inactive: -2.72%.
Under `CCOC(=O)Nc1ccc([As](=O)(O)O)c(O)c1` stands inactive: 0.5%; under `O=C(O)CNc1ccc([As](=O)(O)O)cc1`, inactive: -1%.
Under `O=[N+]([O-])c1cccc(NC2=NCC(CBr)S2)c1` (configuration not stated) stands inactive: -3.34%.
Regarding `O=[N+]([O-])c1ncn(CCn2ncnc2[N+](=O)[O-])n1`, the inhibition was inactive: -1.55%.
To `CC(C)(C)C(=O)NC(Sc1ccncn1)C(Cl)(Cl)Cl` (configuration not stated) belongs inactive: -1.68%; to `O=C(Nc1cc([As](=O)(O)O)ccc1O)c1ccccc1`, inactive: -2.09%; to `CC1CCN(C(=O)Oc2c(Cl)cc(Cl)c3cccnc23)CC1`, inactive: 0.16%.
Under `CC(C)=N/N=C(\N)N[N+](=O)[O-]` stands inactive: 0.19%.
For `CN(C)C(=O)OCCc1n(C)cc[n+]1C`, the inhibition was inactive: -0.43%.
To `CCN(/C(=N/P(=O)(N1CCOCC1)N1CCOCC1)N1CCOCC1)c1ccc(OC)cc1` belongs inactive: -0.5%.
Under `Nc1ccc([As](=O)(O)c2ccc(N)cc2)cc1` stands inactive: 3.12%; under `C[N+]1=C2C=CC=CC=C2SC12C([N+](=O)[O-])=CC([N+](=O)[O-])=C[C-]2[N+](=O)[O-]` (configuration not stated), inactive: 6.54%.
On to `Cc1ccc(NP(=O)(Oc2ccccc2)Oc2ccccc2)nc1`, for which the inhibition was inactive: 1.31%.
`CCc1nc2c(n1)c1c(non1O)c1c2no[n+]1[O-]`: the inhibition was inactive: -1.54%.
Under `O=[N+]([O-])c1cc([N+](=O)[O-])c(CCNc2ccccc2)c([N+](=O)[O-])c1` stands inactive: -4.45%; under `O=[N+]([O-])c1cccc2n[nH]nc12`, inactive: -0.29%; under `CC(=O)N1C2C3N(C(C)=O)C1C1N(C(C)=O)C(C(N1C(C)=O)N3C(C)=O)N2C(C)=O`, inactive: -3.89%.
To `COc1ccc(C2=NCC(CBr)S2)cc1` (configuration not stated) belongs inactive: 0.41%; to `Oc1ccccc1CNc1ccccn1`, inactive: -1.34%; to `O=C(NC(Sc1ccncn1)C(Cl)(Cl)Cl)c1ccccc1` (configuration not stated), inactive: -1.4%.
Regarding `Cc1c2non([O-])c-2c(C)[n+](=O)[n+]1[O-]`, the inhibition is inactive: -2.96%.
On to `Nc1cc(N)c2nonc2c1[N+](=O)[O-]`, for which the inhibition is inactive: -3.62%.
As to `CC(C)CC(=O)NC(Sc1ccc(Cl)cc1)C(Cl)(Cl)Cl` (configuration not stated), the inhibition is inactive: -1.51%.
For `CN1CCCC(OC(=O)C(c2ccccc2)c2ccccc2)C1` (configuration not stated), the inhibition was inactive: 1%.
As to `Clc1ccc(Cl)c(NC2=NCC(CBr)S2)c1` (configuration not stated), the inhibition was inactive: -1.83%.
With `COc1ccccc1OP(=O)(Nc1ccc(C)cn1)Oc1ccccc1OC`, the inhibition is inactive: 1.76%.
Under `Cc1ccc(OP(=O)(Nc2nccs2)Oc2ccc(C)cc2)cc1` stands inactive: -2.95%.
To `Cc1ccc(N/C(=N/P(=O)(N2CCOCC2)N2CCOCC2)N2CCOCC2)cc1` belongs inactive: -0.55%; to `NC(=O)c1cc([N+](=O)[O-])cc([N+](=O)[O-])c1N`, inactive: 2.05%.
To `Nc1cccc2ccc([As](=O)(O)O)cc12` belongs inactive: -0.18%; to `CCN(N=Nc1nonc1N)c1nonc1N`, inactive: -2.71%; to `O=[N+]([O-])c1cc([N+](=O)[O-])c(CCN2CCOCC2)c([N+](=O)[O-])c1`, inactive: 0.15%.
For the compound `Cc1cc(SC(NC(=O)c2ccc(F)cc2)C(Cl)(Cl)Cl)ncn1` (configuration not stated), the inhibition is inactive: -3.04%.
To `CCOP(=O)(Nc1ccccc1)OCC` belongs inactive: -2.02% and inactive: -3.15%; to `Cc1ccc(NP(=O)(Oc2ccccc2F)Oc2ccccc2F)nc1`, inactive: -2.81%; to `O=P(Nc1nc2ccc(Cl)cc2s1)(c1ccccc1)c1ccccc1`, inactive: -3.11%.
